In PMC11685595 (Scientific Reports, 2024):

Target: Arabidopsis thaliana Plant Cysteine Oxidase 4, Ni(II)-substituted (AtPCO4.Ni(II)) (Arabidopsis thaliana, UniProt Q9SJI9 1-241)
Assay: other fluorescence titration; intrinsic Trp fluorescence quenching of AtPCO4.Ni(II) with the shorter peptide (Supplementary Fig. S4); conditions not given
Conditions: both partners purified

B1: RAP2_(2-7), a shorter peptidic form of the RAP peptide (peptide)
peptide: CGGAII
notes: RELATED TO AP-2.12 (RAP2.12), Arabidopsis thaliana, residues 2-7; also called RAP2-7
  binding result: binds
